Values quoted from earlier work, collected in patent US8445533B2, “Andrographolide derivatives to treat viral infections” (Cornell Research Foundation, Inc., priority 2004, dated 2013).

Tested on: H9 cell
Details: cited from earlier work

Substance: dehydroandrographolide succinic acid monoester [DASM]
- concentrations nontoxic to the H9 cell: 50 to 200 µg/mL
